This passage reports IC50 results from patent publication US8039668B2, “Naphthalene-based inhibitors of anti-apoptotic proteins” (Burnham Institute for Medical Research, priority 2008, dated 2011).

The chains behind the UniProt entries cited, without tags or fusion partners.
UniProt Q07820, whole entry: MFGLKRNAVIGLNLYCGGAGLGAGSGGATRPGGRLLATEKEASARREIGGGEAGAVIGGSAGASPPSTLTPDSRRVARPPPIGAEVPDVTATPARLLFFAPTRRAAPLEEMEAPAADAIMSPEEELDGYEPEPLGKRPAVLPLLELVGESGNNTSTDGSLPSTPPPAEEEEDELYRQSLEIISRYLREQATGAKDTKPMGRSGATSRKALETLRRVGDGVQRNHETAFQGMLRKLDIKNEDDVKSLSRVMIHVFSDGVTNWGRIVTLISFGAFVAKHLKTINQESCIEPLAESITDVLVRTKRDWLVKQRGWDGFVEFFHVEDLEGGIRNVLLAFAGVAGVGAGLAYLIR

The target of this experiment is Mcl-1 (Homo sapiens, UniProt Q07820). Nature of the experiment: Competitive fluorescence polarization assay (FPA), Bim BH3 peptide. The format is binding. The following applies: text b221. In general terms: Fluorescence polarisation rises when a labelled molecule tumbles more slowly, as on binding a larger partner.

The term IC50 denotes the point on the concentration scale where inhibition reaches its midpoint. Read a low IC50 as inhibition by little substance. The compound `Cc1cc2c(C(=O)NCC(C)c3ccccc3)c(O)c(O)cc2c(O)c1-c1c(C)cc2c(C(=O)NCC(C)c3ccccc3)c(O)c(O)cc2c1O` (stereo not shown) [Compound 8r, 1,1′,6,6′,7,7′-hexahydroxy-3,3′-dimethyl-N^5,N^5′-bis(2-phenylpropyl)-2,2′-binaphthyl-5,5′-dicarboxamide] gave an IC50 of 280 nM.
